# Assays:
# The chains behind the UniProt entries cited, without tags or fusion partners. Residues count along the entry.
# UniProt C7C422, 29-270 limits assumed: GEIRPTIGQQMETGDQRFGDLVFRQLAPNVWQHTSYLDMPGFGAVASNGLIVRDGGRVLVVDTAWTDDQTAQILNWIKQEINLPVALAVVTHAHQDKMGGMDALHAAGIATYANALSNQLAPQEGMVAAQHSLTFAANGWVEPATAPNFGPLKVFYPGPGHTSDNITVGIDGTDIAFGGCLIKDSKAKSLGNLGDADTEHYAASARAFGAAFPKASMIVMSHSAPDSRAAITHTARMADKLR
# UniProt Q9F663, 25-293 limits assumed: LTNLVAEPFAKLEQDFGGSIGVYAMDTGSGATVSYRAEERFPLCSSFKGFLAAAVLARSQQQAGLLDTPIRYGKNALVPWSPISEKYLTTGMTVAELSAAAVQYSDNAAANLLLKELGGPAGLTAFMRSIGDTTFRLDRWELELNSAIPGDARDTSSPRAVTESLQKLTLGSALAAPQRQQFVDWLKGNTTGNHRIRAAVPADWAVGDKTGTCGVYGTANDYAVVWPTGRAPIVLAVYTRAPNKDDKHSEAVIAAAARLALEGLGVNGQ
# NDM-1 = NDM-1 (Klebsiella pneumoniae, UniProt C7C422); assay: biochemical; conditions: Kd values for MBLs were based on Kis
# KPC-2 = KPC-2 (Klebsiella pneumoniae, UniProt Q9F663); assay: IC50 of beta-lactamase inhibition (nitrocefin hydrolysis); type: biochemical; conditions: IC50 (nM) of drug
Structure (SMILES),Kd (NDM-1),IC50 (KPC-2)
O=C(O)c1c(F)ccc2c1OB(O)[C@@H]1C[C@H]21 [QPX7728],32 ± 14 nM,
"O=C(NC1CCNCC1)[C@@H]1CC[C@@H]2CN1C(=O)N2OS(=O)(=O)O [Relebactam, relebactam]",,82 ± 17 nM
